# miR-21 FLuc: miR-21 reporter, rising signal. HeLa miR-21 FLuc reporter, luciferase, 48 h. Potency, µM (highest dose often 38.3 µM). 340,000 tested, under 10 active. AID 2288; active = well fitted rising curve with a large enough effect; inconclusive = small, poorly fitted or top-dose-only effect; inactive = no such curve, though single readings can be large or run the other way;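 further: miR-21 action dims this reporter so a rising signal means less miR-21 action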
#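 Compounds were titrated across several concentrations (up to approximately 40 uM) and incubated 48 hours with HeLa miR-21-FLuc reporter cells (miR-21 target sequence downstream of FLuc, endogenous miR-21). Readout was firefly luciferase luminescence after lytic detection reagent.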
# Sfp inh: inhibitors of Bacillus subtilis Sfp phosphopantetheinyl transferase | 310,000 tested, 3.5% active | Biochemical Sfp PPTase activity, qHTS | Potency, µM, most hits filed as inhibitors;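 further: the enzyme is Sfp with the accession as filed and its product quenches rhodamine fluorescence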
#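 Step 1, compound plus 15 nM Sfp-PPTase, 15 min, room temperature. Step 2, add rhodamine-CoA (5 uM) and BHQ-2-YbbR (12.5 uM). Step 3, read 525/598 nm fluorescence at 0 and 30 min.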
# Lamin A splicing: changes lamin A minigene splicing in HeLa cells | Potency, µM (top dose mostly 46.1 µM), actives largely listed as inhibitors | HeLa LMNA splicing GFP/RFP minigene ratio, 48 h | 200,000 tested, 0.01% active; active means well fitted inhibition curve with a large enough effect in the signal ratio, with a control signal flat, not every such curve was filed as active; inconclusive means small, poorly fitted or top-dose-only effect, or effect the other way, or a change in a side signal; the % refers to the signal ratio
#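 Read-out is the ratio of GFP to DsRed2 object intensity, acquired by 488 nm laser-scanning cytometry on HeLa lamin A-EGFP minigene reporter cells. Compound incubation 48 hrs at 37 °C in Opti-MEM with 2% FBS; DMSO 0.5% final.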
# ALDH1A1 block: ALDH1A1 (human) enzyme inhibition; Purified ALDH1A1, NADH fluorescence, propionaldehyde substrate; Potency, µM (series often up to 75.3 µM), actives largely listed as inhibitors; 220,000 tested, 7.3% active; AID 1030; active means well fitted inhibition curve with a large enough effect, not every such curve was filed as active; inconclusive means small, poorly fitted or top-dose-only effect, or another doubt; inactive means no such curve, though single readings can be large or run the other way
# G9a inh: G9a (human) methyltransferase inhibition; Q96KQ7; G9a H3K9 monomethylation, AlphaScreen, 2 h; Potency, µM (titrated, usually from 102 µM), usual class: inhibitors; 350,000 tested, 8.8% active; AID 504332; further: nearly all actives have a fitted effect of over 75% in size
#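 Using a bead-based AlphaScreen, monomethylated H3K9 product from 2 h room-temperature reactions (G9a 20 nM, peptide 500 nM, SAM 20 uM) was detected with 0.5 ug/mL rabbit anti-H3K9me1 antibody.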
# KDM4E inh: JMJD2E (human) inhibition. 230,000 tested, 1.6% active. B2RXH2. JMJD2E catalytic domain, FDH-coupled NADH fluorescence (FDH is formaldehyde dehydrogenase). Potency, µM (series often up to 57.1 µM), usual class: inhibitors; active means well fitted inhibition curve with a large enough effect, not every such curve was filed as active; inconclusive means small, poorly fitted or top-dose-only effect, or another doubt; inactive means no such curve, though single readings can be large or run the other way; further: nearly all actives have a fitted effect of over 50% in size
# Hits are given with their value; . = inactive; ? = inconclusive; / = no result given; [ ] = another dose, or the depositor's remark. This is a sample that favours compounds with a hit; in the whole collection about 13% have one here. Unless noted, the call rests on the fitted dose curve; in most records, active means well fitted curve in the direction sought with a large enough effect; inconclusive means small, poorly fitted or top-dose-only effect, or another doubt; inactive means no such curve, though single readings can be large; an effect the other way counts as inactive or inconclusive.
SMILES,miR-21 FLuc,Sfp inh,Lamin A splicing,ALDH1A1 block,G9a inh,KDM4E inh
S=C(Nc1cccc(Cl)c1Cl)N1CCC2(CC1)OCCO2,.,.,?,.,.,.
Cc1cc(C(=O)N/N=C/c2cccc([N+](=O)[O-])c2O)n[nH]1,.,.,.,.,.,12.6µM
O=C(N/N=C/c1ccc(-c2ccccc2[N+](=O)[O-])o1)c1cccnc1,.,.,.,?,.[12.7 µM],.
Cc1cc(C(=O)N/N=C/c2cc(N=Nc3ccccc3)ccc2O)n[nH]1,.,.,?,.,50.1µM,5.01µM
CC(C)(C)c1cc(C(=O)N/N=C/c2ccc(-c3ccccc3[N+](=O)[O-])o2)n[nH]1,.,.,/,/,39.8µM,/
CCCCN(c1ccccc1)S(=O)(=O)c1cc2c3c(c1)C(C)C(=O)N3CCC2 (stereo not drawn),.,/,.,/,.,/
O=C1N(Cc2cccc(Cl)c2)C[C@@H]2C[C@@H](c3cccn3-c3cccnc3)N3CCC[C@@]123,.,.,.,7.08µM,50.1µM,.
O=C1N(Cc2cccnc2)C[C@@H]2C[C@@H](c3cccc(Oc4ccccc4)c3)N3CCC[C@@]123,.,.,/,/,12.6µM,.
O=C1N(Cc2cccnc2)C[C@@H]2C[C@@H](c3ccc(C(F)(F)F)cc3)N3CCC[C@@]123,.,.,/,.,?,.
CCn1ncc([C@@H]2C[C@H]3CN(Cc4cccc(Cl)c4)C(=O)[C@]34CCCN24)c1C,.,.,.,.,?,.
Cc1cc(C)cc(NC(=O)CSCn2nnc3c(=O)[nH]c(Cc4ccc(F)cc4)nc32)c1,.,/,/,/,.,/
COc1ccc(Cc2nnc(SCC(=O)N3CCCCC3)o2)cc1,.,.,.,?,70.8µM,.
COc1ccc(CCCc2nnc(SCC(=O)Nc3ccc(Cl)cc3)o2)cc1,.,/,/,/,.,/
COc1ccc(CCCc2nnc(SCC(=O)NN)o2)cc1,.,.,/,7.94µM,.,.
COc1ccc(Cc2nnc(SCC(=O)N3CCN(c4ccccc4)CC3)o2)cc1,.,.,?,?,?,.
CC1CCCC(C)N1c1nnc(N)s1 (stereo not drawn),.,.,.,.,17.8µM,.
COc1ccc(CSc2nncn2C)cc1[N+](=O)[O-],.,.,.,20µM,.,.
CCOc1ccccc1C(=O)Nc1ccccc1-c1ccccc1,.,.,.,?,.,.
CCOc1cccc2cc(C(=O)Nc3ccccc3-c3ccccc3)c(=O)oc12,.,.,.,0.141µM,.,.
CN(Cc1c(O)ccc2c1oc(=O)c1ccccc12)C1CCCCC1,.,?,.,?,?,25.1µM
COc1cc(OC)cc(-n2nnnc2SCC(=O)N2CCCC2)c1,.,.,.,.,.[12.7 µM],.
COc1ccc(-n2nnnc2S(=O)(=O)CC(=O)N2CCCCC2)cc1,?,.,?,6.31µM,?,.
COc1ccc(C2C(C(=O)NCC3CCCO3)CCC(=O)N2c2ccc3c(c2)OCO3)cc1 (stereo not drawn),.,.,.,14.1µM,.,.
COc1ccc(N2C(=O)CCC(C(=O)NCc3ccccn3)C2c2ccc(OC)c(OC)c2)cc1 (stereo not drawn),.,.,.,.,.,.
COc1ccc(N2C(=O)CCC(C(=O)N3CCCCC3)C2c2ccc(OC)c(OC)c2)cc1 (stereo not drawn),.,.,.,.,56.2µM,.
SMILES,miR-21 FLuc,Sfp inh,Lamin A splicing,ALDH1A1 block,G9a inh,KDM4E inh
COc1ccc(N2C(=O)CCC(C(=O)Nc3cccc(C)n3)C2c2ccc(OC)c(OC)c2)cc1 (stereo not drawn),.,.,.,22.4µM,.[12.7 µM],.
COc1ccc(C2C(C(=O)N3CCOCC3)CCC(=O)N2c2ccc(OC)cc2)cc1 (stereo not drawn),.,.,.,14.1µM,.[12.7 µM],.
CC(NC(=O)COC(=O)COc1cccc2c1OC(C)(C)C2)c1ccccc1 (stereo not drawn),.,.,/,/,.,/
O=C(CSc1n[nH]c(=O)n1Cc1ccccc1)Nc1ccc(F)c(F)c1F,.,?,/,/,39.8µM,/
NS(=O)(=O)c1ccc(NC(=O)CSc2n[nH]c(=O)n2Cc2ccccc2)cc1,.,.,/,/,?,/
O=[N+]([O-])c1cc([N+](=O)[O-])c(Oc2ccc(Cl)c3cccnc23)cc1NN1CCCCC1,.,.,/,/,/,/

# Compound activity deposited in PubChem by National Center for Advancing Translational Sciences (NCATS).
